# Data published in publication PMC12412049 (Journal of controlled release : official journal of the …, 2025).
# What was measured:
# [1] = tested on: U87MG tumor; assay: Biodistribution study in U87MG tumor-bearing mice; assay type: in vivo; conditions: 72 h post-injection, γ-counter, n = 3/group, mean ± SD
# [2] = In vitro stability of radiolabeled compounds in human serum and PBS; conditions: incubation with human serum and PBS for 4 h, 24 h and 72 h; iTLC, mobile phase 50 mM EDTA pH 5.5
# [3] = tested on: U87MG tumor; assay: PET imaging in U87MG tumor-bearing mice; assay type: in vivo; conditions: (%ID/g max delayed ROI - early ROI)/early ROI × 100%
substance,measurement,setting,value
[^64Cu]Cu-DOTA-c(RGDyK) [[^64Cu]Cu-DR],Tumor uptake (biodistribution),[1],1.87 ± 0.88 %ID/g
same,In vitro stability (radiochemical purity),[2],remained stable
same,Retention index (RI),[3],−46.97% (± 14.82%)
